{
  "source": "paper PMC8565515",
  "about": "“Dasabuvir Inhibits Human Norovirus Infection in Human Intestinal Enteroids” (mSphere, 2021)",
  "key": {"GII.4 HuNoV": {"system": "GII.4 HuNoV", "assay": "GII.4 HuNoV infection of HIE monolayers, viral genome equivalents by RT-qPCR", "type": "cell-based, human norovirus", "details": "compound 10 μM, n = 1, J2 HIE monolayers, 24 hpi, normalized to DMSO control"}, "J2 HIE monolayers [1]": {"system": "J2 HIE monolayers"}, "J2 HIE monolayers [2]": {"system": "J2 HIE monolayers", "assay": "Cytotoxicity by LDH assay in J2 HIE monolayers", "details": "compound 10 μM, n = 1, LDH assay, J2 HIE monolayers infected with GII.4 HuNoV, 24 hpi, normalized to DMSO control"}},
  "note": "Read-outs that look alike come from different tables or passages of the source.",
  "data": [
    {"smiles": "COc1cc2ncnc(Nc3cccc(Cl)c3)c2cc1OC", "note": "[AG-1478]", "values": [
      {"measurement": "(%) HuNoV GEs", "setting": "GII.4 HuNoV", "result": 1.56, "unit": "%"}
    ]},
    {"smiles": "CC1(C)S[C@@H]2[C@H](NC(=O)[C@H](NC(=O)N3CCNC3=O)c3ccccc3)C(=O)N2[C@H]1C(=O)O", "note": "[Azlocillin sodium]", "values": [
      {"measurement": "(%) Cytotoxicity", "setting": "J2 HIE monolayers [1]; human, 24 h, 10 μM", "result": -1.98, "unit": "%"}
    ]},
    {"smiles": "O=C(O)[C@H]1O[C@@H](Oc2cc3oc(-c4ccccc4)cc(=O)c3c(O)c2O)[C@H](O)[C@@H](O)[C@@H]1O", "note": "[Baicalin]", "values": [
      {"measurement": "(%) Cytotoxicity", "setting": "J2 HIE monolayers [1]; human, 24 h, 10 μM", "result": 1.68, "unit": "%"}
    ]},
    {"smiles": "C=C(C)[C@@H]1CC[C@]2(C(=O)O)CC[C@]3(C)[C@H](CC[C@@H]4[C@@]5(C)CC[C@H](O)C(C)(C)[C@@H]5CC[C@]43C)[C@@H]12", "note": "[Betulinic acid]", "values": [
      {"measurement": "(%) Cytotoxicity", "setting": "J2 HIE monolayers [2]", "result": 2.09, "unit": "%"}
    ]},
    {"smiles": "Cc1cc(O)cc(C)c1Cl", "note": "[Chloroxylenol]", "values": [
      {"measurement": "(%) Cytotoxicity", "setting": "J2 HIE monolayers [2]", "result": 1.68, "unit": "%"}
    ]},
    {"smiles": "C[C@@H]1CCO[C@H]2Cn3cc(C(=O)NCc4ccc(F)cc4F)c(=O)c(O)c3C(=O)N12", "note": "[Dolutegravir]", "values": [
      {"measurement": "(%) Cytotoxicity", "setting": "J2 HIE monolayers [2]", "result": -1.39, "unit": "%"}
    ]},
    {"smiles": "Cn1c(Cn2ccc(C(F)(F)F)c(Oc3cc(Cl)cc(C#N)c3)c2=O)n[nH]c1=O", "note": "[Doravirine]", "values": [
      {"measurement": "(%) Cytotoxicity", "setting": "J2 HIE monolayers [2]", "result": -1.39, "unit": "%"}
    ]},
    {"smiles": "C[C@H](NC(=O)C(=O)Nc1ccccc1C(C)(C)C)C(=O)N[C@@H](CC(=O)O)C(=O)COc1c(F)c(F)cc(F)c1F", "note": "[Emricasan]", "values": [
      {"measurement": "(%) Cytotoxicity", "setting": "J2 HIE monolayers [1]; human, 24 h, 10 μM", "result": 1.13, "unit": "%"}
    ]},
    {"smiles": "Cc1nn(CCC(=O)Nc2cccc(C#N)c2)c(C)c1S(=O)(=O)N1CCCCC1", "note": "[G402-0939]", "values": [
      {"measurement": "(%) Cytotoxicity", "setting": "J2 HIE monolayers [1]", "result": 1.01, "unit": "%"}
    ]},
    {"smiles": "Cc1cccc(N2CCN(S(=O)(=O)c3ccc4c(c3)CCCN4C(=O)C3CCC3)CC2)c1C", "note": "[G855-2047]", "values": [
      {"measurement": "(%) Cytotoxicity", "setting": "J2 HIE monolayers [1]", "result": -2.02, "unit": "%"}
    ]},
    {"smiles": "NC(=O)N1CCC(CC(=O)N2CCC([C@H]3c4ncc(Br)cc4CCc4cc(Cl)cc(Br)c43)CC2)CC1", "note": "[Lonafarnib]", "values": [
      {"measurement": "(%) Cytotoxicity", "setting": "J2 HIE monolayers [2]", "result": 1.84, "unit": "%"}
    ]},
    {"smiles": "Cc1c(-c2cnccn2)ssc1=S", "note": "[Oltipraz]", "values": [
      {"measurement": "(%) Cytotoxicity", "setting": "J2 HIE monolayers [1]; human, 24 h, 10 μM", "result": -4.37, "unit": "%"}
    ]},
    {"smiles": "NC(=O)c1ncn([C@@H]2O[C@H](CO)[C@@H](O)[C@H]2O)n1", "note": "[Ribavirin]", "values": [
      {"measurement": "(%) Cytotoxicity", "setting": "J2 HIE monolayers [2]", "result": -0.09, "unit": "%"}
    ]},
    {"smiles": "O=C(Nc1ccccc1)c1ccccc1O", "note": "[Salicylanilide]", "values": [
      {"measurement": "(%) Cytotoxicity", "setting": "J2 HIE monolayers [2]", "result": 1.82, "unit": "%"}
    ]},
    {"smiles": "S=C(NCCc1ccccn1)Nc1ccc(Br)cn1", "note": "[Trovirdine]", "values": [
      {"measurement": "(%) Cytotoxicity", "setting": "J2 HIE monolayers [2]", "result": -2.69, "unit": "%"}
    ]},
    {"smiles": "CC(=O)Oc1c(C)c(C)c2c(c1C)CCC(C)(CCC[C@H](C)CCC[C@H](C)CCCC(C)C)O2", "note": "(stereo partly shown) [Vitamin E Acetate]", "values": [
      {"measurement": "(%) Cytotoxicity", "setting": "J2 HIE monolayers [2]", "result": 1.21, "unit": "%"}
    ]}
  ]
}
